Test results: PubChem BioAssay AID651654 (Broad Institute, 2012)
This is a selection; strong and weak results do not stand in their true shares. Some tests of the compounds listed are not included; inactive here does not mean inactive elsewhere. Calls of active or inactive are those of the source.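 How the source made its calls: active means mean lysis activity across replicates of at least 80%, whatever share of replicates individually reach that level; inactive means mean lysis activity below 80%.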

Assay: Cryptococcus neoformans cell lysis inducers, primary screen, AK release luminescence, single concentration (AID 651654)
Conditions: C. neoformans lysis, adenylate kinase release luminescence, 4 h; at 15 µM; active compounds read high; normalised: neutral wells 0, clomiphene wells 100
Summary of the method: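 Assay system: C. neoformans cells. Amount: yeast cell density of 5 × 10^6 cells/mL. Technique: AK luminescence. Buffer or medium: YPD. Times: static 4 h at 37 °C with compound, 1 h detection. Dosing: single-point compound dose. Read-out: lysis from increased AK signal.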
For `CC(C)N1C(=O)CC2(CCN(CCOC(=O)C(O)(c3ccccc3)c3ccccc3)CC2)C1=O`, the lysis activity was inactive: -1.17%. For `COc1cc(SC)ccc1C(=O)NCC1(N(C)C)CCCCC1`, the lysis activity was inactive: -1.08%. With `CCN(CC)CC(C)C(C)OC(=O)C(O)(c1ccccc1)c1ccccc1` (centres undefined) the lysis activity was inactive: 2.85%. With `Cc1ccc(C(=O)NCC2(N3CCCCC3)CCCCC2)cc1` the lysis activity was inactive: 0.521%. In the case of `CN1[C@@H]2CC[C@H]1CC(OC(=O)C(O)(c1ccccc1)c1ccccc1)C2` (some centres undefined), the lysis activity is reported as inactive: 0.449%. In the case of `O=C(NCC1(N2CCCCC2)CCCCC1)c1cc(F)c(F)cc1Cl`, the lysis activity is reported as inactive: -1.26%. With `O=C(NCC1(N2CCCCC2)CCCCC1)c1cccc(Br)c1` the lysis activity was inactive: 4.38%. For `Cc1cc(C(=O)NCC2(N3CCCCC3)CCCCC2)ccc1[N+](=O)[O-]`, the lysis activity was inactive: 2.42%. With `COc1ccc(C(=O)NCC2(N(C)C)CCCCC2)cc1` the lysis activity was inactive: -2%. With `CN(C)c1ccc(C(=O)NCC2(N(C)C)CCCCC2)cc1` the lysis activity was inactive: 1.2%. With `COc1ccc(Cl)cc1C(=O)NCC1(N(C)C)CCCCC1` the lysis activity was inactive: -0.175%. In the case of `O=C(NCC1(N2CCCCC2)CCCCC1)c1cccc(Cl)c1`, the lysis activity is reported as inactive: 6.43%. With `CN(C)C1(CNC(=O)c2ccc(Br)cc2)CCCCC1` the lysis activity was inactive: 0.137%. In the case of `COc1cc(C(=O)NCC2(N(C)C)CCCCC2)c([N+](=O)[O-])cc1OC`, the lysis activity is reported as inactive: -0.452%. With `COc1ccc(Br)c(C(=O)NCC2(N3CCCCC3)CCCCC2)c1` the lysis activity was inactive: -0.714%. With `C=C(C)C#CC(O)(C(=O)OC1CCN(C)CC1)c1ccccc1` (centres undefined) the lysis activity was inactive: -0.655%. With `CN(C)c1cccc(C(=O)NCC2(N(C)C)CCCCC2)c1` the lysis activity was inactive: 2.04%. In the case of `O=C(OCCN1CCCC1)C(O)(c1ccccc1)c1ccccc1`, the lysis activity is reported as inactive: -0.492%. In the case of `CC(C)Oc1ccc(C(=O)NCC2(N(C)C)CCCCC2)cc1`, the lysis activity is reported as inactive: 0.63%.
